Reference: BindingDB's records for US9259422

The chains behind the UniProt entries cited, without tags or fusion partners.
UniProt P33533, whole entry: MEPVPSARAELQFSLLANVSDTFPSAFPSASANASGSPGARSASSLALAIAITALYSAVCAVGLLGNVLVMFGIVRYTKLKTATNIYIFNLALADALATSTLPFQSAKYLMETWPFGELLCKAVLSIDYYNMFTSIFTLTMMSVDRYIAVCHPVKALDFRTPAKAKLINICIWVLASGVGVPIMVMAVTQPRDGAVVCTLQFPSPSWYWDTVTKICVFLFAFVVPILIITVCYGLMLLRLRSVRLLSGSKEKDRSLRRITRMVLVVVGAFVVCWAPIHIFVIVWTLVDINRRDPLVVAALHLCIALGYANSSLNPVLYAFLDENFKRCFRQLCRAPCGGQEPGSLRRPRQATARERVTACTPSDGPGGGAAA
UniProt P33535, whole entry: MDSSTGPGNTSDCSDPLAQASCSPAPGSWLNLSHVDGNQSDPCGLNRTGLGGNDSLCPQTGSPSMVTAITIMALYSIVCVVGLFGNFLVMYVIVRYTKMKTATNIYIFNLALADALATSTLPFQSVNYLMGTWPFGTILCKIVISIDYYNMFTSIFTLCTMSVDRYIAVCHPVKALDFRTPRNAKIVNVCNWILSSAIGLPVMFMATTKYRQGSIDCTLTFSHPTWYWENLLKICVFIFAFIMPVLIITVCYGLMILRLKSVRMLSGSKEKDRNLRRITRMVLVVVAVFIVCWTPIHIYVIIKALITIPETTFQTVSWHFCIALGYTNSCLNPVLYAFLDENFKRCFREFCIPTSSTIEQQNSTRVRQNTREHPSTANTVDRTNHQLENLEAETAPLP

Assays:
[1] = biological target: Delta-type opioid receptor (Rattus norvegicus, UniProt P33533); experiment: Ligand Binding Assays; settings: pH 7.4
Method: (§1) As Alt et al., 2002. Membranes (20 ug) are incubated in 50 mM Tris-HCl, pH 7.4 with [3H]diprenorphine or [3H]nociceptin in the absence or presence of varying concentrations of test compounds for 60 min in a shaking water bath at 25° C. Nonspecific binding is measured using 10 uM naloxone (MOR, DOR, KOR) or N/OFQ (NOP). Samples are filtered through

[2] = biological target: Mu-type opioid receptor (Rattus norvegicus, UniProt P33535); experiment: Ligand Binding Assays; settings: pH 7.4
Method: as §1

Question: With `CO[C@]12CC[C@@]3(C[C@@H]1[C@](C)(O)c1ccccc1)[C@H]1Cc4ccc(O)c5c4[C@@]3(CCN1CC1CC1)[C@H]2O5` as the compound, how does the Ki [1] read?
Answer: 1.91 nM

Question: And the Ki [2]?
Answer: 0.71 nM
